From patent US20080090734A1, “DRUG SCREENING AND TARGET IDENTIFICATION USING SPR IMAGING OF TARGET PROTEIN ARRAYS” (The Trustees of California State University, priority 2006, published 2008)

System: A. baumannii clinical isolate NY F
Assay: Antibiotic susceptibility profile
Format: cell-based, Acinetobacter baumannii

In the case of C[C@H]1COc2c(N3CCN(C)CC3)c(F)cc3c(=O)c(C(=O)O)cn1c23 [LVX, Levofloxacin], the Antibiotic susceptibility is reported as “I”.

CN(C)c1ccc(O)c2c1C[C@H]1C[C@H]3[C@H](N(C)C)C(O)=C(C(N)=O)C(=O)[C@@]3(O)C(O)=C1C2=O [MIN, Minocycline] was tested, and the Antibiotic susceptibility was “S”.
